Yeast mating assay 1: variants of the scFv Ab-14

Reference: Engelhart et al. 2022, doi:10.1038/s41597-022-01779-4. File: FLAb, binding data.

The target is the same throughout: PDVDLGDISGINAS, from the HR2 region of SARS-CoV-2 spike.

Each scFv is VH, three GGGGS repeats, VL, as in the parent Ab-14, and differs from it in the CDRs of the light chain only.
VH: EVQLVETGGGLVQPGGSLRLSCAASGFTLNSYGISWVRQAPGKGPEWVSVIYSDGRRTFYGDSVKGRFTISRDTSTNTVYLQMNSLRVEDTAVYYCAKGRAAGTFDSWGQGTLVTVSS
VL: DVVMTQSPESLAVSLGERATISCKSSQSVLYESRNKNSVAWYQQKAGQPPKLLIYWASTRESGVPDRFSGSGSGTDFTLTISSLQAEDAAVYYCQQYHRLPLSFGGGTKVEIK

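Phage display of a naive human antibody library on the peptide gave the parent. Library AAYL50 holds single substitutions and randomly drawn double and triple substitutions in the CDRs. The assay is AlphaSeq: two haploid yeast populations carry antibody and antigen on their surface. Mating (16 h, 30 °C) was followed by selection of diploids and sequencing of their barcodes. Each replicate has its own calibration line, from reference interactions of the BCL2 family. The assay was run in three technical replicates.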

Positions count from residue 1 of the parent VL; S28I puts I in place of S. These are single substitutions, in order of position. The read-out is the apparent dissociation constant on a log10 scale (nM): the lower, the stronger. An entry "n.d." has no value in the source: the pair was not observed among the diploids in that replicate. This suggests poor binding but is not conclusive. Parent in this assay: reference entry 0.65, copy in this library 1.68. Empty control strains, which show no peptide, gave a signal in 18% of pairings with library AAYL50; the median was 4.19 and 95% of these signals were weaker than 2.99. No background was subtracted.

changes,"log10 Kd, replicates"
S28I,n.d. / n.d. / n.d.
S28E,0.85 / 0.91 / 0.94
S28M,0.76 / 1.07 / 1.07
S28L,1.22 / 1.27 / 1.36
S28H,3.78 / n.d. / n.d.
S28W,2.27 / 1.44 / 3.41
S28R,2.68 / 2.71 / 2.60
S28D,0.71 / 0.94 / 1.08
S28A,1.86 / 1.74 / 1.80
S28P,0.90 / 1.06 / 0.69
S28Y,1.88 / 1.92 / 2.10
S28T,1.26 / 1.54 / 1.47
S28G,1.00 / 1.22 / 1.23
V29L,0.32 / 0.58 / 0.50
V29W,5.79 / 4.32 / n.d.
V29N,1.31 / 1.38 / 1.45
V29I,0.69 / 0.86 / 0.83
V29A,1.55 / 1.35 / 1.05
V29T,0.65 / 0.99 / 0.81
V29S,1.15 / 1.41 / 1.63
V29M,0.88 / 0.90 / 0.77
V29F,0.45 / 0.73 / 0.64
V29E,0.92 / 1.05 / 0.99
V29Q,0.52 / 0.84 / 0.81
V29P,0.79 / 1.03 / 1.05
V29G,0.74 / 0.87 / 0.74
V29H,n.d. / n.d. / n.d.
V29K,1.31 / 2.01 / 1.61
V29D,0.37 / 0.54 / 0.48
V29R,n.d. / n.d. / n.d.
V29Y,0.90 / 0.97 / 0.88
L30V,1.11 / 1.18 / 1.15
L30E,0.56 / 0.74 / 0.71
L30M,0.71 / 0.99 / 0.87
L30G,1.42 / 1.32 / 1.21
L30Q,0.82 / 0.92 / 0.90
L30P,0.96 / 1.16 / 1.12
L30K,1.21 / 1.19 / 1.01
L30T,-0.21 / 0.68 / 0.57
L30D,0.58 / 0.87 / 0.79
L30I,1.20 / 1.39 / 1.29
L30R,0.10 / 0.55 / 0.35
L30C,1.17 / 1.28 / 1.39
L30H,1.32 / 1.41 / 1.40
L30A,0.57 / 0.75 / 0.70
L30Y,0.80 / 0.94 / 0.57
L30S,2.58 / 2.29 / 2.34
Y31Q,0.76 / 0.69 / 0.81
Y31K,n.d. / n.d. / 3.44
Y31D,0.03 / 0.34 / 0.19
Y31F,0.60 / 0.79 / 0.84

A selection of 4 entries from above:

| changes | log10 Kd, replicates |
|---|---|
| L30V | 1.11 / 1.18 / 1.15 |
| S28E | 0.85 / 0.91 / 0.94 |
| S28G | 1.00 / 1.22 / 1.23 |
| L30Q | 0.82 / 0.92 / 0.90 |